Measured values reported in US20040229290A1 (priority 2003, published 2004).

Legend:
[1] = read-out: affinities of wild-type receptors for cognate ligands; cited from earlier work
[2] = format: physicochemical; details: pH 7

glucose-binding protein [GBP, reference compound]
Kd [1]: 500 nM
Tm [2]: 59 °C
